Legend:
male Sprague Dawley rats = assay: Opioid-induced respiratory depression (OIRD) after IP fentanyl and/or xylazine, reversal by treatment; details: for reversal of opioid induced respiratory depression elicited by combined fentanyl+xylazine: fentanyl 0.5 mg/kg + xylazine 1 mg/kg IP, FIG. 1D
experimental rats = details: lethal dose of fentanyl 1.3 mg/kg; oxytocin 200 nmol/kg IP; FIG. 3A
[1] = test system: unrestrained and freely moving animals; assay: Apneas and hypopneas evoked by fentanyl, whole-body plethysmography

xylazine
respiratory depression elicited (male Sprague Dawley rats; IP fentanyl 0.5 mg/kg and xylazine 1 mg/kg alone or in combination, 10-15 minutes post-injection): significantly elicited respiratory depression

CC[C@H](C)[C@@H]1NC(=O)[C@H](Cc2ccc(O)cc2)NC(=O)[C@@H](N)CSSC[C@@H](C(=O)N2CCC[C@H]2C(=O)N[C@@H](CC(C)C)C(=O)NCC(N)=O)NC(=O)[C@H](CC(N)=O)NC(=O)[C@H](CCC(N)=O)NC1=O
survival (experimental rats): increased the survival | incidence of apneas evoked by fentanyl ([1]; FIG. 2A): significantly diminished | incidence of hypopneas evoked by fentanyl ([1]; FIG. 2A): significantly diminished | diminishing the occurrence of apneas evoked by fentanyl, compared to naloxone ([1]; FIG. 2B): significantly potent compared to naloxone | reversal of opioid induced respiratory depression elicited by combined fentanyl+xylazine (male Sprague Dawley rats): potently reversed | reversal of opioid induced respiratory depression elicited by combined fentanyl+xylazine (male Sprague Dawley rats; listed as oxytocin): potently reverses | reversal of OIRD (male Sprague Dawley rats; oxytocin 200 nmol/kg IP 10-15 minutes after fentanyl 0.5 mg/kg IP, vs untreated controls): significantly reversed OIRD | breathing frequency (male Sprague Dawley rats; oxytocin 200 nmol/kg IP 10-15 minutes after fentanyl, vs untreated controls, FIG. 1A): increased | tidal volume (male Sprague Dawley rats; oxytocin 200 nmol/kg IP 10-15 minutes after fentanyl, vs untreated controls, FIG. 1B): increased | minute ventilation (male Sprague Dawley rats; oxytocin 200 nmol/kg IP 10-15 minutes after fentanyl, vs untreated controls, FIG. 1C): increased

C=CCN1CC[C@]23c4c5ccc(O)c4O[C@H]2C(=O)CC[C@@]3(O)[C@H]1C5 [Naloxone]
reversal of opioid induced respiratory depression elicited by combined fentanyl+xylazine (male Sprague Dawley rats): only partially effective

Source: patent US20260207703A1 (priority 2023, published 2026)
